These results are taken from ChEMBL document CHEMBL1125820, “Structure-activity relationship of mutagenic aromatic and heteroaromatic nitro compounds. Correlation with molecular orbital energies and hydrophobicity” (J Med Chem, 1991).

The term logP denotes the decadic logarithm of the partition coefficient of the neutral form, usually between octanol and water.

Each structure is given as a SMILES string.

This data set can be described thus: physchem. Conditions: octanol/water.

Consider `O=Cc1ccccc1[N+](=O)[O-]` [2-NITROBENZALDEHYDE], for which the logP was determined as 1.74.
